Measurements reported in patent publication US20050245593A1, “4-Aminomethyl-1-aryl-cyclohexylamine compounds” (published 2005).

By UniProt entry, the sequences of proteins in these tests, tags left out. Where a name states a change or a piece, a line headed by the entry shows the natural chain unless it says otherwise.
UniProt P35372, whole entry, looked up: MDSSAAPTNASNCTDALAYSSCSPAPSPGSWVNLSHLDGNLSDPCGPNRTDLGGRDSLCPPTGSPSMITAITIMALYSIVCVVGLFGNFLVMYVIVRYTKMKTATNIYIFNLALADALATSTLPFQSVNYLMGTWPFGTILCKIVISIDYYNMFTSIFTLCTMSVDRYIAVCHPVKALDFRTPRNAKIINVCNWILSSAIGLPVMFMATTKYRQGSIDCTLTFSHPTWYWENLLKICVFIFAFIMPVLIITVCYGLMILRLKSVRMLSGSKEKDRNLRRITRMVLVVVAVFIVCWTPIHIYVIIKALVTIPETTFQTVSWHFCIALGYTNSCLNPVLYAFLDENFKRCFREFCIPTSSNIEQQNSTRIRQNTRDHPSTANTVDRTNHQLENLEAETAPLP
UniProt P41146: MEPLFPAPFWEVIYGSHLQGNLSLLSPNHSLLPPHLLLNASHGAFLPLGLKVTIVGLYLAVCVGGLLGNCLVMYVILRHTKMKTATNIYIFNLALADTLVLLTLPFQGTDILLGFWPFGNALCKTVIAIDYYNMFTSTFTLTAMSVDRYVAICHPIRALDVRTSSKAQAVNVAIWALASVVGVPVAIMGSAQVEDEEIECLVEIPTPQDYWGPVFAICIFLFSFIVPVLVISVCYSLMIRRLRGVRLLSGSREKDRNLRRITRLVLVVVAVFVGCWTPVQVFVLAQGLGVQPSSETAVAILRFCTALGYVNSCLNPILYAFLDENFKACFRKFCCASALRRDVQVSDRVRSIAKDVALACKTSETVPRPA

Assays:
mouse = assay: Analgesia test in the tail-flick test in the mouse; details: % of the maximum possible antinociceptive effect
human μ-opiate receptor = human μ-opiate receptor (Homo sapiens, UniProt P35372); assay: μ-opiate receptor binding assay with [3H]-naloxone
ORL1 receptor = ORL1 receptor (Homo sapiens, UniProt P41146); assay: ORL1 receptor binding assay with 3H-nociceptin/orphanin FQ; details: membranes of recombinant CHO-ORL1 cells; for Ki: read-out: ORL1 Ki, 0.5 nM 3H-nociceptin/orphanin FQ
[1] = read-out: μ Ki, CHO-K1 membranes expressing human μ-opiate receptor, Cheng-Prusoff
[2] = read-out: μ Ki, CHO-K1 membranes expressing human μ-opiate receptor, Cheng-Prusoff, citrate

For `CN(C)C1(c2ccccc2)CCC(CNC(=O)Cc2c[nH]c3ccccc23)CC1.Cl` (centres unmarked), the “Tail flick (mouse, i.v.) % inhibition” value (mouse; dose 3.16 mg/kg) was 70%.

In the case of “N-(4-Dimethylamino-4-phenylcyclohexylmethyl)-2-(1H-indol-3-yl)propionamide hydrochloride”, the Ki (human μ-opiate receptor; [1]) is reported as 2.6 nM, the “Tail flick (mouse, i.v.) % inhibition” value (mouse; dose 10 mg/kg) is reported as 97% and the Ki (ORL1 receptor) is reported as 59 nM.

For “N-(4-Dimethylamino-4-phenylcyclohexyl)-2-(5-fluoro-2-methyl-1H-indol-3-yl)acetamide citrate [Example 25]”, the Ki (human μ-opiate receptor; [2]) was 36 nM and the “ORL1 % inhibition [1 μM]” value (ORL1 receptor; c=1 μM) was 68%.

In the case of `CN(C)C1(c2ccccc2)CCC(CNC(=O)CCCCc2c[nH]c3ccccc23)CC1` (centres unmarked), the Ki (human μ-opiate receptor; [1]) is reported as 15 nM and the Ki (ORL1 receptor) is reported as 27 nM.

Work on `CN(C)C1(c2ccccc2)CCC(CNC(=O)CCCCCc2c[nH]c3ccccc23)CC1` (centres unmarked) yielded a Ki (human μ-opiate receptor; [1]) of 5.8 nM and a Ki (ORL1 receptor) of 6.6 nM.

`CN(C)C1(c2ccccc2)CCC(CNC(=O)Cc2c[nH]c3ccccc23)CC1` (centres unmarked) gave a Ki (human μ-opiate receptor; [1]) of 5.2 nM and a Ki (ORL1 receptor) of 20 nM.

Work on `CN(C)C1(c2ccccc2)CCC(CNC(=O)NCCc2c[nH]c3ccccc23)CC1` (centres unmarked) yielded a Ki (human μ-opiate receptor; [1]) of 11 nM and a Ki (human μ-opiate receptor; read-out: μ Ki, CHO-K1 membranes expressing human μ-opiate receptor, Cheng-Prusoff, hydrochloride) of 1 nM.

For `CN(C)C1(c2ccccc2)CCC(CNC(=O)NCCc2c[nH]c3ccccc23)CC1` (single isomer, unassigned), the Ki (ORL1 receptor) was 37 nM and the Ki (ORL1 receptor; hydrochloride) was 7.9 nM.

In the case of `CN(C)C1(c2ccccc2)CCC(CNC(=O)CCCCc2c[nH]c3ccccc23)CC1.Cl` (centres unmarked), the “Tail flick (mouse, i.v.) % inhibition” value (mouse; dose 10 mg/kg) is reported as 52%.

“N-(4-Dimethylamino-4-phenylcyclohexyl)-2-(5-fluoro-2-methyl-1H-indol-3-yl)acetamide citrate [Example 26]” showed a Ki (human μ-opiate receptor; [2]) of 120 nM and a Ki (ORL1 receptor) of 87 nM.

`CN(C)C1(c2ccccc2)CCC(CNC(=O)CCCCCc2c[nH]c3ccccc23)CC1.Cl` (centres unmarked) was tested, and the “Tail flick (mouse, i.v.) % inhibition” value (mouse; dose 10 mg/kg) was 100%.

Read-outs that look alike come from different tables or passages of the source.
